Molecular target: Nociceptin receptor (Homo sapiens, UniProt P41146)
Assay: Human Nociceptin/Orphanin FQ Peptide (hNOP) Receptor Binding Assay: The hNOP receptor binding assay was performed as homogeneous SPA-assay (scintillation proximity assay) using the assay buffer 50 mM TRIS-HCl. 10 mM MgCl2. 1 mM EDTA (pH 7.4). The final assay volume (250 μl/well) included 0.5 nM of [leucyl-3H]nociceptin as ligand (PerkinElmer Life Sciences. Inc. Boston. Mass. USA). and either test

CN(C)[C@]1(c2ccccc2)CC[C@]2(CC1)CN(c1cnc(-c3cccc4c3CC(=O)N4)nc1)C(=O)N2
Ki: 2 nM
